The text below walks through data of PubChem BioAssay AID624380 (The Scripps Research Institute Molecular Screening Center, 2012).

Amino acid sequences for entries named in this document (tags omitted).
UniProt P35372, whole entry, looked up: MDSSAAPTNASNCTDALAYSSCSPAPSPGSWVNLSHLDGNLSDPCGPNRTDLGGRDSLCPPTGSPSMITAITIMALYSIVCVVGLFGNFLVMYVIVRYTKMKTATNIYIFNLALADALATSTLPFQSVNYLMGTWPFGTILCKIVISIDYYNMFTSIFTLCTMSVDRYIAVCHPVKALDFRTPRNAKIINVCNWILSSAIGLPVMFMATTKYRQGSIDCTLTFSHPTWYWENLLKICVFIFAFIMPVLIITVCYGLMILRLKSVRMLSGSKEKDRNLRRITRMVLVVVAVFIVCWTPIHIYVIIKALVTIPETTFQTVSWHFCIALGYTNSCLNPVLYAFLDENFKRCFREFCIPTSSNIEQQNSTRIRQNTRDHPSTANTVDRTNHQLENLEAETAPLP

This is a selection; strong and weak results do not stand in their true shares. Activity calls are given as the source filed them.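 The calls were made as follows: active = mean activation above the mean of DMSO-only wells plus 3 SD (cut at about 0.5% in these data); inactive = the rest.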

The target of the assay is Mu-type opioid receptor (Homo sapiens) (UniProt P35372). Nature of the assay: mu opioid receptor activation, arrestin complementation – cell-based, luminescence, single concentration, counter-screen for mouse HTR2A agonist project, confirmation (AID 624380). The conditions noted are these: U2OS OPRM1 beta-arrestin PathHunter, at 9.3 µM, hits give high values, DMSO 0%, DAMGO 9.3 µM 100%. The method, boiled down: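 system = U2OS cells, OPRM1–beta-arrestin fragment complementation | also added = DAMGO reference agonist, 9.3 µM | schedule = 3 h compound treatment, 37 °C, 1 h room-temperature reagent step | measured by = chemiluminescence from reconstituted beta-galactosidase after detection reagent addition | read-out = percent activation scaled between DMSO-only and DAMGO-treated well medians | repeats = three replicate wells per compound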
In general terms: Counterscreens check selectivity or assay interference.
As to `OCCNc1ncnc2c1ncn2[C@H]1CN(Cc2ccncc2)C[C@@H](CO)O1`, the activation is inactive: -0.38%.

Regarding `COC(=O)[C@H](Cc1ccc(O)cc1)NC(=O)Cn1cnc2c(OCc3ccccc3)ncnc21`, the activation was inactive: -0.55%.

Regarding `CN1CCN(c2ncnc3c2ncn3[C@H]2CN(Cc3ccncc3)C[C@@H](CO)O2)CC1`, the activation was inactive: -0.52%.

Regarding `CCN(CC)CCn1c(NC(=O)c2ccc(Cl)cc2)nc2ccccc21`, the activation is inactive: -0.01%.

Turning to `C[C@H](O)[C@@H]1CN2CCc3c([nH]c4ccccc34)[C@@H]2C[C@@H]1N(C)C(=O)Nc1ccc(Br)cc1`, the activation is inactive: -0.36%.

Turning to `COc1ccc(N)c([N+](=O)[O-])c1[N+](=O)[O-]`, the activation was inactive: -0.72%.

Take `C[C@@H](NC(=O)Cn1cnc2c(OCc3ccccc3)ncnc21)c1cccc2ccccc12`: the activation is inactive: -0.5%.

As to `O=c1[nH]c2ccccc2n1C1CCN(C(c2ccccc2OC(F)(F)F)c2nnnn2-c2ccc3c(c2)OCCO3)CC1` (centres undefined), the activation is inactive: 0%.

For the compound `S=C=Nc1cccc(C2(N3CCCCC3)CCCCC2)c1`, the activation was inactive: -0.51%.
